According to patent US20230265247A1, “PROCESS FOR PREPARING POLYIMIDES” (Technische Universität Wien, priority 2020, published 2023):

Conditions: salts of tetrahydrofuran-2,3,4,5-tetracarboxylic acid; 1 ml distilled water with around 20 to 40% by weight of salt, stirred 15 minutes; no = no clear solution

For `Nc1cccc(N)c1.O=C(O)C1OC(C(=O)O)C(C(=O)O)C1C(=O)O` (stereo not shown) [Example V3], the Salt is water-soluble was “no”.
